# PubChem BioAssay AID1009 (NMMLSC, 2008)
# The chains behind the UniProt entries cited, without tags or fusion partners.
# UniProt Q07820, whole entry: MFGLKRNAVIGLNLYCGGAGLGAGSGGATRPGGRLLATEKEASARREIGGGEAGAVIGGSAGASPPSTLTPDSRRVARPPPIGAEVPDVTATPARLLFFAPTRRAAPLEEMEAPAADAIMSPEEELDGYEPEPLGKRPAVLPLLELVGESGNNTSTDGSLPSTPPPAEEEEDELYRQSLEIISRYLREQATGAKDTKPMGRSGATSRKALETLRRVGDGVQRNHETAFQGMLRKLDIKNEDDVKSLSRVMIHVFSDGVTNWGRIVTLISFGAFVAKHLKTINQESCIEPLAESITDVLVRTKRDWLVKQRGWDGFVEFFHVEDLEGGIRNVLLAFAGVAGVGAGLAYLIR
# The entries are a selection whose mix differs from that of the whole data set. The source made the active and inactive calls. No stated cut-off is given here; in the data, active means inhibition above about 40%.
# Target: Induced myeloid leukemia cell differentiation protein Mcl-1 (Homo sapiens) (UniProt Q07820)
# Experiment: inhibitors of Bim peptide binding to Mcl-1, primary screen, biochemical, bead-based flow cytometry, multiplex (AID 1009);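 further: 0% = no compound tracer wells and 100% = peptide blocker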
# Details: Bim peptide-Mcl-1 binding, at 10 µM, hits give high values
row,SMILES,inhibition
1,COc1cc(OC)cc(C(=O)NCC2(N3CCOCC3)CCCCC2)c1,inactive: 2%
2,CCC(CO)(C(=O)OC1CN2CCC1CC2)c1ccccc1 (stereo not given),inactive: 0%
3,CC(C)(C)OC(=O)N1CCC(Nc2ccccc2)CC1,inactive: -6%
4,CCOc1ncccc1C(=O)NCC1(N2CCOCC2)CCCCC1,inactive: -8%
5,CN(C)c1ccc(C(=O)NCC2(N3CCCCC3)CCCCC2)cc1,inactive: 0%
6,CCN1CCC(Nc2cccc(F)c2)CC1,inactive: -6%
7,Fc1ccccc1NC1CCN(Cc2ccccc2)CC1,inactive: 0%
8,c1ccc(CN2CCC(Nc3ccccc3)CC2)cc1,inactive: 1%
9,N#Cc1ccc(C(=O)NCC2(N3CCCCC3)CCCCC2)cc1,inactive: 0%
10,O=C(OC1CN2CCC1CC2)C1c2ccccc2C=Cc2ccccc21 (stereo not given),inactive: -2%
11,N/C(=N\O)c1c(N)no[n+]1[O-],inactive: -2%
12,COc1ccc(C(=O)NCC2(N3CCOCC3)CCCCC2)cc1OC,inactive: 0%
13,CC(C)c1ccc(NC2CCN(C(=O)OC(C)(C)C)CC2)cc1,inactive: 2%
14,COc1ccc(CN(CCCl)CCCl)cc1Cl,inactive: 0%
15,CN(C)c1cccc(C(=O)NCC2(N3CCCCC3)CCCCC2)c1,inactive: 0%
16,O=C(NCC1(N2CCOCC2)CCCCC1)c1cc(=O)[nH]c2ccccc12,inactive: -8%
17,CN1CCN(CCOC(=O)C(O)(c2ccccc2)c2ccccc2)CC1,inactive: -5%
18,COc1ccc(NC2CCN(C(=O)OC(C)(C)C)CC2)cc1,inactive: -1%
19,N#CC1(Nc2ccccc2)CCN(CCc2ccccc2)CC1,inactive: 0%
20,O=C(NCC1(N2CCCCC2)CCCCC1)c1cccc([N+](=O)[O-])c1,inactive: 1%
21,COc1ccc(NC2CCN(CCc3ccccc3)CC2)c(OC)c1,inactive: 0%
22,O=C(OC1CN2CCC1CC2)C1c2ccccc2Oc2ccccc21 (stereo not given),inactive: 1%
23,CCOC(=O)N1CCC(Nc2ccc(OC)cc2)CC1,inactive: -2%
24,O=C(NCC1(N2CCOCC2)CCCCC1)c1cc2ccccc2o1,inactive: 7%
25,COc1ccc(C(=O)NCC2(N3CCCCC3)CCCCC2)c(OC)c1OC,inactive: 2%
